{"sequences": {"note": "By UniProt entry, the sequences of proteins in these tests, tags left out.", "UniProt P03372, whole entry": "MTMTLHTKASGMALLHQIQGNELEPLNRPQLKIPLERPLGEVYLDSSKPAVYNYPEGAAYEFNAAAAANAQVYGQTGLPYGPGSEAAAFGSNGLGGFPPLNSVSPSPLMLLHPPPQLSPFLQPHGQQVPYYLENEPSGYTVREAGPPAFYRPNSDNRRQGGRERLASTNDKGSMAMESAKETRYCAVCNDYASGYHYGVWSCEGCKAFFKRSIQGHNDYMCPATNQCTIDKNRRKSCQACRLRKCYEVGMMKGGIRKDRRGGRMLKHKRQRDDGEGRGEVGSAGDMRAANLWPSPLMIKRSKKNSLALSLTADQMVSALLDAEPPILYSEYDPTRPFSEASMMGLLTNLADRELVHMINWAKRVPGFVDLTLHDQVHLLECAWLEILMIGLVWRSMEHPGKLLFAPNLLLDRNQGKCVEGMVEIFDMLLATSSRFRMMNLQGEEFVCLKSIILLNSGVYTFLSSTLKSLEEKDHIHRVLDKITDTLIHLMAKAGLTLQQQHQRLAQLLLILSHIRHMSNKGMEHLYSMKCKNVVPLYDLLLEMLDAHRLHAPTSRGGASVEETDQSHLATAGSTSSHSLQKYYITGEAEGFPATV"}, "source": "ChEMBL document CHEMBL5335824", "about": "“Research progress of LSD1-based dual-target agents for cancer therapy” (Bioorg Med Chem, 2024)", "key": {"[1]": {"target": "Estrogen receptor (Homo sapiens) (UniProt P03372)", "test": "Binding affinity to ERalpha (unknown origin) assessed as relative binding affinity incubated for 2 hrs by fluorescence polarization assay relative to control"}, "[2]": {"test": "Selectivity ratio of relative binding affinity for ERalpha (unknown origin) to relative binding affinity to ERbeta (unknown origin)"}}, "data": [{"smiles": "CC/C(=C(/c1ccc(OCCN(C)C)cc1)c1ccc(OC(=O)N(C)CCN(C)C2CC2c2ccccc2)cc1)c1ccccc1", "note": "(configuration not stated)", "values": [{"measurement": "RBA", "setting": "[1]", "value": 8.73, "unit": "%"}, {"measurement": "Ratio", "setting": "[2]", "value": 2.7}]}]}
